{"source": "patent US11141489B2", "about": "“Conjugates comprising an GLP-1/Glucagon dual agonist, a linker and hyaluronic acid” (SANOFI, priority 2016, dated 2021)", "key": {"[1]": {"test": "Blood glucose in fed, male diabetic db/db mice: pure peptide versus crosslinked HA conjugate (Example 21)", "format": "in vivo, BKS.CG-m+/+ Lepr(db)/J mice", "settings": "once daily s.c. 1.7 nmol/kg", "description": "Effects of SEQ ID NO: 5 after Subcutaneous Treatment on Blood Glucose in Fed, Male Diabetic db/db Mice—Comparison Pure Peptide SEQ ID NO: 5 with Crosslinked HA Conjugate of SEQ ID NO: 5 (Batch C)\nMale diabetic, obese BKS.CG-m+/+ Lepr(db)/J mice were ordered from Charles River and upon arrival housed in groups with wood chip bedding. At the study start mice were approximately 13-14 weeks old.\nMice were housed under vivarium conditions including a 12 h light/dark cycle (light phase 06:00 AM-6:00 PM), room temperatures between 23-26° C. and a relative humidity between 30-70%. All animals had free access to water and a rodent maintenance diet (Ssniff R/M−H).\nSeven days prior to dosing body mass and HbA1c measurements were performed. Thereafter animals were assigned to treatment groups (n=8) and to new cages to match mean HbA1c and body masses between the db/db groups.\nThe dosing intervals were: […]\nAnimals had unlimited access to water and feed during the experiment. On day 1 of the dosing phase blood glucose concentrations were measured prior to and 4 hours post-treatment. Thereafter blood glucose concentrations were assessed daily between 8:30 and 9:30 AM. For this purpose approximately 2 μL of blood were collected from the tail and blood glucose concentrations measured using a handheld device (Accu Chek). […]"}, "[2]": {"test": "Body mass and feed consumption in female diet-induced obese (DIO) C57BL/6 mice", "format": "in vivo, C57BL/6NHsd mice", "description": "Effects after Subcutaneous Treatment on Blood Glucose, Body Mass, Whole Body Fat Content, and Feed Consumption in Female Diet-Induced Obese (DIO) C57BL/6 Mice\nFemale C57BL/6NHsd mice were ordered group housed from Envigo RMS Inc., shipped group housed and remained group housed with shipped cage mates in disposable shoebox caging with wood chip bedding until day 38 of the pre-dose phase. At the study start mice were between 25-26 weeks old.\nMice were housed under vivarium conditions that included a 12 h light/dark cycle (light phase 04:00 AM-4:00 PM), room temperatures between 21-25° C. and a relative humidity between 30-70%. All animals had free access to water and diet (DIO: 75-TD97366, Lean: 10-Harlan2014) for 16 weeks prior to pharmacological intervention (dosing phase). Feed was replaced with fresh feed weekly until and for the last time on day 38 of the pre-dose phase. During the subsequent dosing phase, a portion of the remaining feed was removed, replaced with fresh feed, and pellets were mixed evenly once per week.\nOn pre-dose day 38, obese DIO mice were assigned to treatment groups (n=8) to match mean body masses between all DIO groups. An age-matched group with ad libitum access to a rodent maintenance diet was included in the study as a lean control group.\nMice were treated in the morning on day 1 and between 1:00 and 3:00 PM on days 8, 15, and 22—with a s.c. injection of cross-linked hyaluronic acid or 0.88 mg/kg*week SEQ ID NO: 5 using a 30 G needle. The applied volume was 300 μl per animal and alternate injection sites were used each week (1st injection left scapular, 2nd injection: right scapular, 3rd injection: left flank, 4th injection: right flank).\nBody mass and feed consumption (estimated for groups of four mice housed in one cage) were measured daily between 01:00-03:00 PM throughout the 28 days of the dosing phase.\nFor statistical analyses a One-Way Analysis of Variance (ANOVA) was performed with Sigmaplot 12.5. The power of the performed test was alpha=0.050:0.999 and a comparison versus the DIO-Vehicle group was performed with Dunnett's Method. Lean-Vehicle group data were used as a reference dataset for the non-obese state."}}}
{"compound": "CCCCCCCCCCCCCCCC(=O)N[C@@H](CCC(=O)NCCCC[C@H](NC(=O)[C@H](CCC(N)=O)NC(=O)[C@H](CCCCN)NC(=O)[C@H](CO)NC(=O)[C@H](CC(C)C)NC(=O)[C@H](CC(=O)O)NC(=O)[C@H](CO)NC(=O)[C@@H](NC(=O)[C@H](Cc1ccccc1)NC(=O)[C@@H](NC(=O)CNC(=O)[C@H](CCC(N)=O)NC(=O)[C@@H](CO)NC(=O)[C@@H](N)Cc1c[nH]cn1)[C@@H](C)O)[C@@H](C)O)C(=O)N[C@@H](CCC(=O)O)C(=O)N[C@@H](CO)C(=O)N[C@@H](CCCCN)C(=O)N[C@@H](C)C(=O)N[C@@H](C)C(=O)N[C@@H](CCC(N)=O)C(=O)N[C@@H](CC(=O)O)C(=O)N[C@@H](Cc1ccccc1)C(=O)N[C@H](C(=O)N[C@@H](CCC(=O)O)C(=O)N[C@@H](Cc1c[nH]c2ccccc12)C(=O)N[C@@H](CC(C)C)C(=O)N[C@@H](CCCCN)C(=O)N[C@@H](C)C(=O)NCC(=O)NCC(=O)N1CCC[C@H]1C(=O)N[C@@H](CO)C(=O)N[C@@H](CO)C(=O)NCC(=O)N[C@@H](C)C(=O)N1CCC[C@H]1C(=O)N1CCC[C@H]1C(=O)N1CCC[C@H]1C(=O)N[C@@H](CO)C(N)=O)[C@@H](C)CC)C(=O)O", "note": "[SEQ ID NO: 5, H-dSer-Q-G-T-F-T-S-D-L-S-K-Q-K(γE-x53)-ESKAAQDFIEWLKAGGPSSGAPPPS-NH2]", "values": [{"measurement": "day up to which blood glucose concentrations were decreased", "setting": "[1]; as long as the animals were dosed", "value": "≤ 13", "unit": "days"}, {"measurement": "effect on blood glucose concentrations", "setting": "[1]; day 0 to day 13, fed male db/db mice", "value": "strong decrease in blood glucose concentrations"}, {"measurement": "feed consumption effect following the first dose", "setting": "[2]; 0.88 mg/kg*week s.c., female DIO mice", "value": "pronounced feed consumption inhibition"}, {"measurement": "body mass effect of the first dose", "setting": "[2]; 0.88 mg/kg*week s.c., female DIO mice, lasted until day 8 (batch C)", "value": "marked and sustained body mass-reducing effect"}, {"measurement": "time to normalized feed consumption", "setting": "[2]; 0.88 mg/kg*week s.c., female DIO mice, then comparable to DIO-vehicle group", "value": "≤ 8", "unit": "days"}, {"measurement": "mean body mass below the mean body mass of the DIO-Vehicle group", "setting": "[2]; day 28, after four doses (day 1, 8, 15, 22) of 0.88 mg/kg*week s.c., statistically significant", "value": "approximately 13.6 g"}]}
